Measurements as given in patent EP0560235B1, “Condensed heterocyclic ketone derivatives, their production and use” (priority 1992, dated 1993).

The chains behind the UniProt entries cited, without tags or fusion partners. Residues count along the entry.
UniProt P37136, 32-614 limits assumed: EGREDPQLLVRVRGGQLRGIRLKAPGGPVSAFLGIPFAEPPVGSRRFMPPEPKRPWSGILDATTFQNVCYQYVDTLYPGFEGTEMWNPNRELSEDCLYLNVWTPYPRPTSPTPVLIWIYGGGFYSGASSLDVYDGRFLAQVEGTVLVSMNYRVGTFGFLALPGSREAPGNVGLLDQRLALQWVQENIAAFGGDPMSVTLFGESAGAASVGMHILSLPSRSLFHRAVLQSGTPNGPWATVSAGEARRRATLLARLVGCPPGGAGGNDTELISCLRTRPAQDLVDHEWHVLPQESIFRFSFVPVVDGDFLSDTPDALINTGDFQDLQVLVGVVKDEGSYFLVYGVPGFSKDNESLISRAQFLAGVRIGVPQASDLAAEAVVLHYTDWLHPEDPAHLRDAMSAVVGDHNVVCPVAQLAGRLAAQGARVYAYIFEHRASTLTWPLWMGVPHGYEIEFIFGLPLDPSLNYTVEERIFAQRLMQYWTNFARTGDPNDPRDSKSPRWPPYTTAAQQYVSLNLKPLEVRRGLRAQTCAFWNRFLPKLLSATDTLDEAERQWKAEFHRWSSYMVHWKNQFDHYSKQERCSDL
UniProt Q9WTR4, 1-597: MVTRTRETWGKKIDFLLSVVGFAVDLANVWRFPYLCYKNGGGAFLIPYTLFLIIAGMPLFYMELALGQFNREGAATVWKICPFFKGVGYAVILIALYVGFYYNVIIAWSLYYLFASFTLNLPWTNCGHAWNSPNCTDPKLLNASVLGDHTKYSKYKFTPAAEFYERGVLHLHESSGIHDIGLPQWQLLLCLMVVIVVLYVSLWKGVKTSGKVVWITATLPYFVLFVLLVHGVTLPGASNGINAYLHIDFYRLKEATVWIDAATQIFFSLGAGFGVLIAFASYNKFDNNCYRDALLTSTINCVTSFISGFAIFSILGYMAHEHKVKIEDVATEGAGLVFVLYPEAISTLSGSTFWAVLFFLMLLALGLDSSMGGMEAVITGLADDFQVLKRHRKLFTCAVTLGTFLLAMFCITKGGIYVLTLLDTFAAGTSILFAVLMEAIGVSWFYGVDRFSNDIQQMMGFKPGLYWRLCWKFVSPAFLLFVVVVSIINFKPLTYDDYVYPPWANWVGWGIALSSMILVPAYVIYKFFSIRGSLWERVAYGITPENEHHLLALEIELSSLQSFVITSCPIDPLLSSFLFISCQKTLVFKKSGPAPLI
UniProt P31652, whole entry: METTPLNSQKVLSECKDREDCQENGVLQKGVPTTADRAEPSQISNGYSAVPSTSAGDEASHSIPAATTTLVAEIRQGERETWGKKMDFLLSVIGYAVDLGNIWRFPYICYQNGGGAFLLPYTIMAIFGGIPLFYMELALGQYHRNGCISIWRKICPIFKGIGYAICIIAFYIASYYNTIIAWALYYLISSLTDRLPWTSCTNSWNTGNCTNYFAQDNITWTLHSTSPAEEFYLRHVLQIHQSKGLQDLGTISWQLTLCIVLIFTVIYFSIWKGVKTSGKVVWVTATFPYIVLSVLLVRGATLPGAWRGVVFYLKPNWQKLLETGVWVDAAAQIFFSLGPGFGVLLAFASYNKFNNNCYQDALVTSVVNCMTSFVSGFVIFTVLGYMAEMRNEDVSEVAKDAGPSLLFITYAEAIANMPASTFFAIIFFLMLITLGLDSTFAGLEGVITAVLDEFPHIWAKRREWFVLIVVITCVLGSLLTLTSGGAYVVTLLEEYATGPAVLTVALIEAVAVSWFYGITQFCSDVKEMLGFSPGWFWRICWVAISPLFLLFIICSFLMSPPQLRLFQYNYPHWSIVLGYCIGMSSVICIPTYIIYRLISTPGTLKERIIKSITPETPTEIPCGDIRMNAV

Legend:
[1] = target: cholinesterase (Rattus norvegicus, UniProt P37136); assay: Cholinesterase inhibitory activity assayed with (acetyl-[3H])-acetylcholine, S1 fraction of cerebral cortex homogenate; assay type: biochemical; details: read-out: Acetylcholinesterase inhibitory activity I C50, S1 fraction of male Wistar rat cerebral cortex homogenate, (acetyl-[3H])-acetylcholine substrate, 30 minutes incubation
[2] = target: norepinephirine(NE) uptake (Rattus norvegicus, UniProt Q9WTR4); assay: Monoamine uptake into crude synaptosomal preparations (P2) of cerebral cortex and hippocampus, [3H]-NE; assay type: biochemical, Rats; details: read-out: Monoamine reuptake inhibitory activity IC50 NE, [3H]-NE 11 nM, 37°C, tested form: 3HCl·3/2H2O
[3] = target: serotonin (5-HT) uptake (Rattus norvegicus, UniProt P31652); assay: Monoamine uptake into crude synaptosomal preparations (P2) of cerebral cortex and hippocampus, [3H]-5-HT; assay type: biochemical, Rats; details: read-out: Monoamine reuptake inhibitory activity IC50 5-HT, [3H]-5-HT 10 nM, 37°C, tested form: 3HCl·3/2H2O

Compound | IC50 [1] | IC50 ([1]; tested form: 2HCl, hemihydrate) | also measured
COC(=O)N1CCc2ccc(C(=O)CCN3CCN(Cc4ccccc4)CC3)cc2CC1 | 169 nM | – | –
O=C(CCN1CCN(C(c2ccccc2)c2ccccc2)CC1)c1ccc2c(c1)CCN(Cc1ccccc1)CC2 | 52.6 nM | – | –
O=CN1CCCc2ccc(C(=O)CCN3CCN(Cc4ccccc4)CC3)cc2C1 | – | 171 nM | –
O=CN1CCCc2ccc(C(=O)CCN3CCN(Cc4ccccc4)CC3)cc21 | – | 118 nM | –
O=C(CCN1CCN(Cc2ccccc2)CC1)c1ccc2c(c1)CCCN2 | – | – | IC50 ([1]; tested form: 3HCl·H2O): 163 nM
O=C(CCN1CCN(Cc2ccccc2)CC1)c1ccc2c(c1)CCN(Cc1cccc(O)c1)CC2 | – | – | IC50 ([1]; tested form: 3HCl·3/2H2O): 60.2 nM; IC50 [2]: 359 nM; IC50 [3]: 41.3 nM
O=CN1CCc2cc(C(=O)CCN3CCN(Cc4ccccc4)CC3)ccc21 | 15.2 nM | 15.2 nM | –
O=C(CCN1CCN(Cc2ccccc2)CC1)c1ccc2c(c1)CCN(Cc1ccccc1)CC2 | – | – | IC50 ([1]; tested form: 3HCl): 49 nM
O=C(CCN1CCN(Cc2ccccc2)CC1)c1ccc2c(c1)CCNCC2 | – | – | IC50 ([1]; tested form: 3HCl·2H2O): 49.3 nM
CC(=O)N1CCc2ccc(C(=O)CCN3CCN(Cc4ccccc4)CC3)cc2CC1 | – | – | IC50 ([1]; tested form: 2HCl, dihydrate): 119 nM
O=CN1CCCc2cc(C(=O)CCN3CCN(Cc4ccccc4)CC3)ccc21 | – | 59.9 nM | –
O=CN1CCc2ccc(C(=O)CCN3CCN(Cc4ccccc4)CC3)cc2CC1 | 92.8 nM | – | –

Read-outs that look alike come from different tables or passages of the source.
